Amino acid sequences for entries named in this document (tags omitted). A change or cut given only in a name is not applied to a line headed by its entry.
UniProt P50613: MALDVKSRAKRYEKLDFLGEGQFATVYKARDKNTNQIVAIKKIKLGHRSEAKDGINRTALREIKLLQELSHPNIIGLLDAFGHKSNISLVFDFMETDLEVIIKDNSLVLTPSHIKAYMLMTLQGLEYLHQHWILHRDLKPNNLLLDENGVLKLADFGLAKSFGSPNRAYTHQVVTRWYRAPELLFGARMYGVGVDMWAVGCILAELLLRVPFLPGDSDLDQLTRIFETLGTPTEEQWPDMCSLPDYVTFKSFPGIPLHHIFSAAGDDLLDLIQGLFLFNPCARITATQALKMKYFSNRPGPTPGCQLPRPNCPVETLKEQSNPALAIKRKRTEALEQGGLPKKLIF
UniProt P48736: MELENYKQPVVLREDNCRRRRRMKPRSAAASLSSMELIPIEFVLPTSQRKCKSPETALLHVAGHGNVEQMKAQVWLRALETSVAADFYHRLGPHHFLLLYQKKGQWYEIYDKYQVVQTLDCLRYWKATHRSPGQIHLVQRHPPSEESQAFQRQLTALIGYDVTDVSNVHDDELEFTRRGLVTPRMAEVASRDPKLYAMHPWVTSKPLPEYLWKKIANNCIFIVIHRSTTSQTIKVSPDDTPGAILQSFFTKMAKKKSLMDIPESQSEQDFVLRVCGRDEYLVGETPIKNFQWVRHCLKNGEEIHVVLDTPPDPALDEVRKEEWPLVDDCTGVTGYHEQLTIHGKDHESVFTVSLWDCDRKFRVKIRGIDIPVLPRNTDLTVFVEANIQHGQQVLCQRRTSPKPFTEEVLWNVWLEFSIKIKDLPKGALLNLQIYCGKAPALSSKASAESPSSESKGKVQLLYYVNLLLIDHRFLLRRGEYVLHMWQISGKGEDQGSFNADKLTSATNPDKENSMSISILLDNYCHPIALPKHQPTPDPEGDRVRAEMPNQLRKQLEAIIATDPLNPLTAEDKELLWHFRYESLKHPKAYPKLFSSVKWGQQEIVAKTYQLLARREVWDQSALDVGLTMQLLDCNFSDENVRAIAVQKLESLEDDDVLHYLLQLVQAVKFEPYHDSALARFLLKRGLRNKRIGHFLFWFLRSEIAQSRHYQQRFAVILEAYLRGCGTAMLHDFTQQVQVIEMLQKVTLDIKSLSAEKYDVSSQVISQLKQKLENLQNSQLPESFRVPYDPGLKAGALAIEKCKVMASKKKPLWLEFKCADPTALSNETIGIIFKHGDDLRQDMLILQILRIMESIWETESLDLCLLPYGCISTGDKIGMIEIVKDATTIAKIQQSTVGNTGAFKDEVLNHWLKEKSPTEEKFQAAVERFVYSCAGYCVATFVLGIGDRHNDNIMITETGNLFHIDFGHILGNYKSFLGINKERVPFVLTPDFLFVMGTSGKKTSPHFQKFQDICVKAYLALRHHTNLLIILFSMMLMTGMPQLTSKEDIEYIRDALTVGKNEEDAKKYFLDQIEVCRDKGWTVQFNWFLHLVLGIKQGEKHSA

In ChEMBL document CHEMBL5543160, “Psychoplastogenic DYRK1A Inhibitors with Therapeutic Effects Relevant to Alzheimer's Disease” (J Med Chem, 2024):

Columns and labels:
[1] = biological target: Cyclin-dependent kinase 7 (Homo sapiens) (UniProt P50613); experiment: Inhibition of CDK7 (unknown origin) at 10 uM by DiscoverX KINOMEscan assay
[2] = biological target: Phosphatidylinositol 4,5-bisphosphate 3-kinase catalytic subunit gamma isoform (Homo sapiens) (UniProt P48736); experiment: Inhibition of PIK3CG (unknown origin) at 10 uM by DiscoverX KINOMEscan assay

Structure (SMILES): COc1ccc2c3ccnc(C)c3n(CCN(C)C)c2c1.O=C(O)/C=C/C(=O)O
- inhibition [1]: Active
- inhibition [2]: Active

Activity calls are given as the source filed them. The calls are words filed in the database; no cut-off is given here.
